Some structures show a salt or complex split into parts, the way the source records it.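 Grown in 96-well plates, cells were treated for 48 hours with each compound at five concentrations. Insufficient inhibition: endpoint recorded as highest concentration tested. GI50 is the concentration that inhibits growth by half. TGI: concentration producing complete growth inhibition.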

For the experiment, the system named is BT-549 breast. The experiment can be described thus: DTP human tumour cell line panel, 48 h.

Usually GI50 stands for the concentration giving 50% growth inhibition. As usually defined, the TGI is the concentration giving total growth inhibition. With `[Au+].[Au+].c1ccc([PH+](c2ccccc2)c2ccccc2)cc1.c1ccc([PH+](c2ccccc2)c2ccccc2)cc1.n1n[n-]c(-c2nnn[n-]2)n1`, the GI50 was 12.1 µM and the TGI came out at 24.5 µM.

Source of the values: PubChem BioAssay (NCI).
